# Binding of CDR-mutated scFvs to a peptide of the spike HR2 region

Target peptide (SARS-CoV-2 spike, HR2 region): PDVDLGDISGINAS

Ab-14 is the parent antibody, in scFv form: VH, then a (GGGGS)3 linker, then VL. The light chain is unchanged in all variants.
VH: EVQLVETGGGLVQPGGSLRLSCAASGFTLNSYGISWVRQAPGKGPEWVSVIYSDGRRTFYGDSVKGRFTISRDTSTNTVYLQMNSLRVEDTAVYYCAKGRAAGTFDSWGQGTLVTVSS
VL: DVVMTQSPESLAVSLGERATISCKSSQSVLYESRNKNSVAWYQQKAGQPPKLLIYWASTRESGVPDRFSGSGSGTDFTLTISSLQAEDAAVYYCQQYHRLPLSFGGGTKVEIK

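Designed CDR sequences, proposed from the first random library and measured here. Group labels follow the data file (Ctrl: baseline library sampled from a position-specific scoring matrix, with some repeated check sequences; GP: Gaussian process model; GPLM: also part of the Gaussian process libraries; HC: hill climbing; Gen: genetic algorithm; Gibbs: Gibbs sampling; a sequence that several methods proposed may carry one label only). Affinity was read by AlphaSeq, a pooled yeast mating assay with surface-displayed partners. Pairs that bind mate more often; barcode pairs of the diploids are counted by sequencing. Read counts were normalised to the haploid input and turned into Kd by a linear fit to BCL2-family pairs of known affinity, for each replicate. Mating was done six times.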

The parent's heavy chain CDRs are GFTLNSYGIS, VIYSDGRRTFYGDSVK, GRAAGTFDS; each variant's own CDRs replace them letter for letter.
Variants here have at most six changes.
Values are apparent Kd, the geometric mean of the replicates that gave a signal; lower means stronger binding.
"nd" marks a missing value. The strain was present, yet no cells mated with the target were sequenced in any replicate, which points to weak or no binding.
The authors' rule: three or more of the six replicates give a measured affinity, fewer mean a poor binder.
Of ten entries with the parent sequence, four were seen in most replicates (averages 2.2 nM to 240 nM), three in one and three in none, so single entries are noisy.
A sequence measured in both rounds can read differently, since the two assays cover different ranges.
As a blank, each scFv also met three strains without target: over all heavy chain designs, 1% of these pairings were detected, typically at 120 nM and seldom below 7.0 nM.

For GFNLNSYGIS | VIYSDGVRTFYGESVK | GRAAGTFDS [Ctrl], the assay gave 7.5 nM (2 of 6 replicates). With GFTLDSYGIS | VIYSDGRRTFYGDSVK | GRCAGTFDS [Ctrl] the result was 14 nM (1 of 6 replicates). With GFTLNSYGIS | VIYSDGVRTFYHDQVK | GRAIGTFDS [Ctrl] the result was nd (0 of 6 replicates). With GFTLNSYGIS | VIYSDGRRTAYGDSVK | GRAKGTFDS [Ctrl] the result was nd (0 of 6 replicates). The variant GFDLNSYGIS | VIYSDGKRTFYGDSVK | GHAAGTFDA [GP_Gibbs] gave 1.9 nM (6 of 6 replicates). The variant GFTLNSYGIS | VIYSDGRRTFYHDSVK | GRAAGTFAS [Ctrl] showed nd (0 of 6 replicates). For GFSLNQYGIS | VIYSDGRRTFYSDSVK | GRQAGTFDS [GPLM_HC], the assay gave 800 pM (6 of 6 replicates).

For GFTLNSYGIS | VIYADGRRTFYGDSVK | GRVAGTFWI [GP_HC], the assay gave nd (0 of 6 replicates). With GFTLKSYGIS | VIYADGRRTFYGDSVK | GRVAGTFDS [GP_Gen] the result was 1.4 nM (4 of 6 replicates). The variant GFDLNSYGIS | VIYSDGRRTFYLDSVK | GRAAGTFDI [Ctrl] showed 22 nM (2 of 6 replicates). The variant GFTLNSYGIS | VIYSDGRRTFYGDDVK | GQTAGTFDL [GP_Gen] showed 15 nM (6 of 6 replicates). The variant GFNLNSYGIS | VIYSDGRRTQYGDSVK | GEAAGTFDD [Ctrl] gave nd (0 of 6 replicates). For GFTLDSYGIS | VIYSDGRRTFYNDSVK | DRAVGTFDS [Ctrl], the assay gave nd (0 of 6 replicates). With GFTLNSYGVS | VIYSDGRRTFYDDSVK | GRAAGTFDS [Ctrl] the result was 24 nM (5 of 6 replicates).

The variant GFELNSYGIS | VIYSDGRRTFYSDSVK | GEAAGTFDS [GPLM_Gen] showed 4.7 nM (6 of 6 replicates). For GFELNSYGIS | VIYSDGRRTFYGDQVK | GQTAGTFDS [GP_Gen], the assay gave 6.1 nM (6 of 6 replicates). The variant GFDLNSYGIS | VIYSDGRRTFYGDNVK | GEAAGTFDS [GP_Gen] showed 2.7 nM (6 of 6 replicates). The variant GFTLNSYGIS | VIYADGRRTFYGDSVK | GRAAGTFPH [Ctrl] gave nd (0 of 6 replicates). With GFDLNSYGIS | VIYSDGRRTFYGDSVK | GRQAGTFDV [GP_Gen] the result was 3.0 nM (6 of 6 replicates). The variant GFSLNSYGIS | VIYADGRRTFYGDSVK | GRAAVTFDS [Ctrl] showed nd (0 of 6 replicates). The variant GVTINSYGIS | VIYSDGRRTFYGDSVK | GRAAGTFDS [Ctrl] showed nd (0 of 6 replicates).

With GFTLNSYGIS | VIYSDGFRTFYGDSVK | GRAAGTFEK [Ctrl] the result was 14 nM (3 of 6 replicates). With GFELNSYGIS | VIYSDGRRTFYGDSVK | GVKAGTFDS [GPLM_Gibbs] the result was 6.7 nM (1 of 6 replicates). With GFTLNSYGIS | VIYSDGRRTFYGDSVE | GRASGTFDT [Ctrl] the result was 490 nM (1 of 6 replicates). The variant GFWLNEYGIS | VIYSDGRRTFYGDSVK | GRAAGTFDT [GP_Gibbs] gave 25 nM (6 of 6 replicates). The variant GFELNEYGIS | VIYSDGRRTFYGDSVK | GQAAGTFDK [GPLM_Gen] gave 3.4 nM (6 of 6 replicates). For GFDLNSYGIS | VIYSDGRRTFYDDSVK | GLLAGTFDS [GP_HC], the assay gave 2.0 nM (6 of 6 replicates). For GFTLNSYGIS | VIYADGRRTSYGDSVK | DRAAGTFDS [Ctrl], the assay gave nd (0 of 6 replicates).

With GFTLNKYGIS | VIYSDGRRTFYADEVK | GREAGTFDS [Ctrl] the result was 2.8 nM (6 of 6 replicates). The variant GFNLNSYGIS | VIYSDGRRTFYADPVK | GQAAGTFDN [GP_Gibbs] showed 33 nM (6 of 6 replicates). The variant GFTLNQYGIS | VIYSDGRRTFYGDSVK | GFAAGTFDS [Ctrl] gave 21 nM (1 of 6 replicates). With GFTLNSYGIS | VIYADGMRTFYGDKVK | GRAAGTFDS [Ctrl] the result was 25 nM (6 of 6 replicates). For GFTLNDHGIS | VIYSDGRRTFYGDSVK | GRLAGTFDS [Ctrl], the assay gave 250 nM (2 of 6 replicates).

Reference: Li et al. 2023, doi:10.1038/s41467-023-39022-2. File: FLAb, binding data.